HCMV NEC inh – inhibitors of HCMV UL50-UL53 interaction, biochemical, HTRF. normalized percent inhibition. hit rate 0.15% among 190,000. inhibition, % (concentration not given with the values). AID 1918969, 2023. HCMV UL50-UL53 nuclear egress complex (human cytomegalovirus); in the data active = inhibition above about 27%, passing the limit was not always enough
GIV Gai3 FP – inhibitors of GIV peptide binding to Galpha-i3, primary screen, biochemical, fluorescence polarization, FITC-GIV GBA peptide, rat Galphai3 | 90 min; hits give low values; scaled: aluminum fluoride 0%, vehicle 100% | percent of control (FP), % (concentration not given with the values) | 210,000 compounds, 0.42% hits | AID 1224905, 2016;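 active = replicate mean at 85% of control or lower, very high polarization wells dropped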;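 also: wells of about 15 µL received 100 nL stock; the first replicate is given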
GIV-Gai FP conf – inhibitors of GIV peptide binding to Galpha-i3, confirmation, biochemical, fluorescence polarization, FITC-GIV peptide, rat Galphai3; shares compounds with GIV Gai3 FP; stronger effect = lower value; fluorescence polarization, mP at 100 µM; hit rate 38% among 580;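 active = inhibition score of 15 or more, meaning 100 minus mean polarization as percent of control over three replicates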
GIV-Gai AS conf – inhibitors of GIV binding to Galpha-i3, confirmation, orthogonal assay for GIV-Galpha-i inhibitor project, biochemical, AlphaScreen, His-GIV, GST-Galphai3; shares compounds with GIV Gai3 FP; purified proteins, 90 min; stronger effect = lower value; AlphaScreen counts at 100 µM; hit rate 39% among 580;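 active = inhibition score at or above a set limit, where the score is 100 minus the three-replicate mean percent of control signal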
Numbers without * were called inactive; . = no result. Shown are actives, neighbours in structure and some others; about 0.46% of the full set was active somewhere.

Key to letters – A = HCMV NEC inh; B = GIV Gai3 FP; C = GIV-Gai FP conf; D = GIV-Gai AS conf
Structure: CCN(CC)C(=O)Cn1c(=O)c2ccccc2n2c(=S)sc(-c3ccc(Br)cc3)c12
  A: -29; B: 100; C: 94; D: 27284
Structure: O=C(Cn1c(=O)c2ccccc2n2c(=S)sc(-c3ccccc3)c12)NCC1CCCO1 (stereo not drawn)
  A: -16; B: 78*; C: 72; D: 23082
Structure: O=C(Nc1ccc2c(c1)OCO2)c1nnc(C2CCN(C(=O)C3CCC3)CC2)s1
  A: .; B: 100; C: .; D: .
Structure: CC(C)C(c1nnnn1Cc1ccccc1)N1CCCc2ccccc21 (stereo not drawn)
  A: -11; B: 104; C: .; D: .
Structure: COc1ccc2c(c1)c(/C=C/c1nc3ccccc3c(=O)n1-c1ccccc1)c(C)n2C
  A: -3; B: 107; C: .; D: .
Structure: COc1ccc2c(c1)c(/C=C/c1nc3ccccc3c(=O)n1-c1cccc(C)c1)c(C)n2C
  A: -10; B: 66*; C: 72; D: 43303
Structure: O=C(Nc1ccccc1C(=O)OCc1c(F)cccc1Cl)c1ccco1
  A: -10; B: 103; C: .; D: .
Structure: COc1ccc(OC)c(C2C(C(=O)Nc3nc4ccc(Br)cc4s3)=C(C)NC3=C2C(=O)CC(C)(C)C3)c1 (stereo not drawn)
  A: -8; B: 88; C: 63; D: 54834
Structure: COc1ccc(OC)c(C2C(C(=O)Nc3nc4ccccc4s3)=C(C)NC3=C2C(=O)CC(C)(C)C3)c1 (stereo not drawn)
  A: -2; B: 105; C: .; D: .
Structure: O=C(NC(c1ccccc1)c1ccccc1)C1CCN(c2ncccn2)CC1
  A: 2; B: 98; C: .; D: .
Structure: CCc1nc2sc3c(c2c2nncn12)CCCC3
  A: -15; B: .; C: .; D: .
Structure: CCn1nc(N)c2c(O)[nH]c(=O)cc21
  A: .; B: 41*; C: 34*; D: 25115*
Structure: CCN(CC)C(=O)CSc1nc(N)cc(=O)[nH]1
  A: -11; B: .; C: .; D: .
Structure: COC(=O)c1ccc2c(=O)n(CCc3ccc(S(N)(=O)=O)cc3)c(SCC(=O)Nc3ccc(C)cc3)nc2c1
  A: .; B: 110; C: .; D: .
Structure: Cc1ccccc1-n1ncc2c(SCC(=O)Nc3ccc(N4CCCC4)cc3)ncnc21
  A: 17; B: 99; C: .; D: .

More results
Key to letters – A = HCMV NEC inh; B = GIV Gai3 FP; C = GIV-Gai FP conf; D = GIV-Gai AS conf
Structure: Cc1nc(Cc2nnc(SC(C)c3nc4scc(-c5ccccc5)c4c(=O)[nH]3)o2)cs1 (stereo not drawn)
  A: -16; B: .; C: .; D: .
Structure: CCCC1C2CN(C(C)C)CC=C2C(C#N)=C(N)C1(C#N)C#N (stereo not drawn)
  A: -62; B: 79*; C: 66; D: 23056
Structure: CCOC(=O)N1CC=C2C(C#N)=C(N)C(C#N)(C#N)C(CC)C2C1 (stereo not drawn)
  A: -33; B: 126; C: .; D: .
Structure: CCc1c(C)c(C#N)c2nc3ccccc3n2c1N1CCCC1
  A: -10; B: 101; C: .; D: .
Structure: CCc1c(C)c(C#N)c2nc3ccccc3n2c1-n1nc(C)cc1C
  A: -41; B: 86; C: 75; D: 35204
Structure: C=CCc1cccc2cc(C(N)=O)c(=N)oc12
  A: -114; B: 113; C: .; D: .
Structure: COc1cc(/C=C2\C(=O)N(c3ccc(S(N)(=O)=O)cc3)N=C2C)ccc1OCc1ccccc1
  A: .; B: 100; C: .; D: .
Structure: COc1cc(/C=C2/C(=O)N(c3ccccc3)N=C2C)ccc1OS(=O)(=O)c1ccccc1
  A: 42*; B: 81*; C: 60*; D: 21149*
Structure: COc1cc(C(=O)Nc2cc(C)c3c(=O)oc4ccccc4c3n2)cc(OC)c1OC
  A: 12; B: 152; C: 73; D: 37152
Structure: Cc1ccccc1C(=O)Nc1cc(C)c2c(=O)oc3ccccc3c2n1
  A: .; B: 109; C: .; D: .
Structure: CCOC(=O)[C@@H]1Nc2ccc(Br)cc2[C@@H]2C=CC[C@H]12
  A: -44; B: 125; C: .; D: .
Structure: CCOC(=O)[C@@H]1Nc2ccc(C(=O)O)cc2[C@@H]2C=CC[C@H]12
  A: .; B: 63*; C: 50*; D: 2184*
Structure: COc1ccc(N2C(=O)c3c(C)nc4ccccc4c3C2=O)cc1OC
  A: -29; B: 103; C: .; D: .
Structure: COc1ccc(N2C(=O)c3c(C)nc4ccccc4c3C2=O)cn1
  A: -38; B: 84*; C: 55; D: 42415
Structure: COc1ccc(Oc2nc(N3CCCC3)c(Cl)c3c2N(C2CCCCC2)CCS3(=O)=O)cc1
  A: 9; B: 105; C: .; D: .

(more compounds)
molecule | HCMV NEC inh | GIV Gai3 FP | GIV-Gai FP conf | GIV-Gai AS conf
Cc1ccc2ccc3cc(C(=O)Nc4ccc5c(c4)OCCO5)nc3c2[nH]1 | -6 | 102 | . | .
CCOC(=O)N1CCN(C(=O)c2ccc3nc(-c4ccc(OC)c(OC)c4)c(-c4ccc(OC)c(OC)c4)nc3c2)CC1 | . | 84* | 65 | 50289
COc1ccc(-c2nc3ccc(C(=O)N4CCN(c5ccccc5)CC4)cc3nc2-c2ccc(OC)c(OC)c2)cc1OC | . | 102 | . | .
CC(O)CNc1c[nH]c(=O)[nH]c1=O (stereo not drawn) | -21 | 100 | . | .
O=c1[nH]cc(NCCO)c(=O)[nH]1 | -7 | 66* | 44* | 47941
Cc1onc(-c2ccc(Br)cc2)c1C(=O)NCCC1=CCCCC1 | . | 108 | . | .
Cc1ccc(COc2ccc(Br)cc2C=C2C(=O)NC(=S)NC2=O)cc1 | 8 | 100 | . | .
O=C1NC(=O)C(=Cc2cc(Br)ccc2OCc2ccc(Cl)cc2)C(=O)N1 | 50* | 78* | 62 | 39620
CC(=O)N/N=C/c1ccccc1 | -14 | 101 | . | .
CC(=O)N/N=C/c1cc(C(C)C)cc(/C=N/NC(C)=O)c1O | -85 | 81* | 68 | 27039
COc1ccc2oc(=O)cc(CN(C)c3c(C)cc(C)cc3C)c2c1 | . | 105 | . | .
CCOC(=O)c1c(NC(=O)CSc2nnc(CNC(=O)c3ccco3)n2-c2cccc(Cl)c2)sc2c1CCC2 | . | 111 | . | .
CCn1c2ccc(OC)cc2c2nc3ccccc3nc21 | -60 | 96 | . | .
CCn1c2ccccc2c2nc3cc4ccccc4cc3nc21 | -8 | 44* | 39* | 55414
COC(=O)c1ccc(NC(=O)CC2Sc3ccc(C(F)(F)F)cc3NC2=O)cc1 (stereo not drawn) | . | 104 | . | .
COc1ccc(CNS(=O)(=O)c2c(C)sc(C)c2-c2ccno2)cc1 | 0 | 104 | . | .
Cc1ccn2c(=O)cc(COc3cccc(NC(=O)Nc4cccc(Cl)c4C)c3)nc2c1 | . | 88 | 75 | 35234
Cc1ccn2c(=O)cc(COc3ccc(NC(=O)Nc4cccc(Cl)c4)cc3)nc2c1 | . | 108 | . | .
Cc1ccn2c(=O)cc(COc3ccc(NC(=O)Nc4ccc(Cl)cc4)cc3)nc2c1 | . | 82* | 76 | 24165
Cc1c(Cl)cccc1NC(=O)Nc1cccc(OCc2cc(=O)n3ccccc3n2)c1 | . | 99 | . | .

More entries.
molecule | HCMV NEC inh | GIV Gai3 FP | GIV-Gai FP conf | GIV-Gai AS conf
Cc1nc2nc(C3CCCCC3)nn2c(C)c1CC(=O)NC(C)C | -1 | 97 | . | .
CC(=O)Nc1cccc(C(=O)Nc2ccc(N3CCCCC3)cc2)c1 | 2 | . | . | .
O=C1CC(=O)c2ccc3c4c(ccc1c24)C(=O)CC3=O | -46 | 74* | 53* | 2272*
Nc1ccc2c(c1)CCC2=O | -21 | 144 | . | .
COc1ccc2cc3c(nc2c1)N(S(=O)(=O)c1ccc(F)c(C)c1)CC3 | -2 | 99 | . | .
O=C1CN(c2ccccc2)C(=O)N1 | . | 100 | . | .
Nc1c2c(nn1-c1ccccc1)CC(=O)NC2=O | 71* | 60* | 47* | 31739*
C=CCn1c(SCC(=O)Nc2ccc(OCC)cc2)nc2cc(C(=O)N3CCOCC3)ccc2c1=O | . | 118 | . | .
COc1ccc(C(=O)Oc2ccc(C=C3C(=O)NC(=O)NC3=O)cc2Cl)cc1 | 76* | 76* | 60 | 24807*
COc1cc(C=C2C(=O)NC(=O)NC2=O)ccc1OC(=O)c1cc(F)c(F)cc1Cl | -3 | 101 | . | .

In another format: results already given.
Under each structure – HCMV NEC inh	GIV Gai3 FP	GIV-Gai FP conf	GIV-Gai AS conf
- C=CCn1c(SCC(=O)Nc2ccc(OCC)cc2)nc2cc(C(=O)N3CCOCC3)ccc2c1=O
  .	118	.	.
- CC(=O)Nc1cccc(C(=O)Nc2ccc(N3CCCCC3)cc2)c1
  2	.	.	.
- O=C1CC(=O)c2ccc3c4c(ccc1c24)C(=O)CC3=O
  -46	74*	53*	2272*
- O=C1CN(c2ccccc2)C(=O)N1
  .	100	.	.
- COc1ccc2cc3c(nc2c1)N(S(=O)(=O)c1ccc(F)c(C)c1)CC3
  -2	99	.	.

Screening results: PubChem, ICCB-Longwood Screening Facility, Harvard Medical School
